From patent publication US20050163707A1, “Cancer treatment” (priority 2002, published 2005)

System: HT29 colon tumour xenografts
Assay: Tumour volume tripling time of HT29 xenografts in nude mice after 90Y-hHMFG1 radioimmunotherapy and/or chemotherapy
Format: in vivo, mouse (human tumour xenograft)
Conditions: Table 2, HT29 vincristine, Observer 2, control 10.7; 90Y-hHMFG1 1.4 MBq; vincristine 2 mg/kg; combinations 24 h apart
Method: The human bladder tumour cell line, HT1376, and the human colon tumour cell line HT29 expressing polymorphic epithelial mucin (PEM) were cultured in RPMI 1640 tissue culture medium containing 100 U·ml^−1 penicillin and 100 μg·ml^−1 streptomycin, supplemented with 10% foetal calf serum in a humidified atmosphere of 5% carbon dioxide in air. HT1376 is a human bladder carcinoma cell line obtained from the European Collection of Animal Cell Cultures (ECACC no. 87032402). HT29 is human colon carcinoma cell line obtained from European Collection of Animal Cell Cultures (ECACC no. 91072201).
The fully humanised version of the anti-PEM antibody, HMFG1, was produced by Lonza, Slough, UK. This humanised HMFG1 (hHMFG1) was conjugated with the chelating agent […] by BioInvent, Sweden. […]
Approximately three weeks after tumour inoculation, when the tumours were around 0.2 cm^3 in volume (7-8 mm in diameter), mice were divided into treatment groups of 7-8 mice each. […] Tumour diameters (d1, d2 and d3) were measured twice weekly in three orthogonal directions using a vernier calliper and the tumour volume (v) calculated according to the formula for an ellipsoid: [formula]
Relative tumour volume (the volume of each tumour divided by the tumour volume on the day of treatment) was calculated to minimise the effect of variation in treatment volume of the individual tumours. […]

## CC[C@]1(O)C[C@H]2CN(CCc3c([nH]c4ccccc34)[C@@](C(=O)OC)(c3cc4c(cc3OC)N(C=O)[C@H]3[C@@](O)(C(=O)OC)[C@H](OC(C)=O)[C@]5(CC)C=CCN6CC[C@]43[C@@H]65)C2)C1 [vincristine, Vincristine]
  Median volume tripling time: 14.7 days
